Measured values reported in patent publication US11634443B2, “Treprostinil prodrugs” (United Therapeutics Corporation, priority 2019, dated 2023).

Protein sequences, listed by entry. Tags and fused reporters are not part of them. Lines headed by an entry give the natural chain unless they say otherwise; changes in a name come on top.
UniProt P43116: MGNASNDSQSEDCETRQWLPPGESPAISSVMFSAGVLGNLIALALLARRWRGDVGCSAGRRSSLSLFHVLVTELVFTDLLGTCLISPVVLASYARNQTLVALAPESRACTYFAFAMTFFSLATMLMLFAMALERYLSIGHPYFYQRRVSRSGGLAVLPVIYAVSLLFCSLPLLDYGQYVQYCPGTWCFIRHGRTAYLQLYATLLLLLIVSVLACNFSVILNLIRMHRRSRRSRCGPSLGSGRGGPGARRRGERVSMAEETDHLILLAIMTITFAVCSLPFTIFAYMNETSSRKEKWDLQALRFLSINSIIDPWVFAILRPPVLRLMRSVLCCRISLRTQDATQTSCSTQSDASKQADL

Assays:
[1] = Plasma stability and formation of treprostinil, human plasma; type: in vitro ADME; conditions: 1 μM, 37° C.
Protocol: (§1) Studies were carried out in mixed-gender human plasma male Sprague-Dawley rat plasma, and male Beagle dog plasma. All plasma was obtained from Bioreclamation and collected on K2EDTA. Plasma was adjusted to pH 7.4 prior to initiating the experiments. DMSO stocks were first prepared for the test articles. […] The vials were kept in a benchtop Thermomixer® for the duration of the experiment. […] Samples were stored at 4° C. until the end of the experiment. After the final time point was sampled, the plate was mixed and then centrifuged at 3000 rpm for 10 minutes.

[2] = Plasma stability and formation of treprostinil, rat plasma; type: in vitro ADME; conditions: 1 μM, 37° C.
Protocol: as §1

[3] = Plasma stability and formation of treprostinil, dog plasma; type: in vitro ADME; conditions: 1 μM, 37° C.
Protocol: as §1

[4] = Stability and formation of treprostinil in simulated intestinal fluid; type: in vitro ADME; conditions: SIF pH 6.8, 1 μM, 37° C.
Protocol: Studies were carried out in simulated intestinal fluid (SIF). SIF was prepared by dissolving 6.8 g of KH2PO4 in 250 mL of water, mixing, and then adding 77 mL of 0.2 N NaOH and 750 mL of water. […] DMSO stocks were first prepared for the test articles. […] The vials were kept in a benchtop Thermomixer® for the duration of the experiment. A separate tube was dosed for each time point in each matrix. […] Samples were mixed and then immediately stored at 4° C. until the end of the experiment. After the final time point was sampled, the plate was mixed and then centrifuged at 3000 rpm for 10 minutes.

[5] = biological target: T1, prostaglandin E2 (PGE2) receptor 2 (EP2) (Homo sapiens, UniProt P43116); assay: EP2 receptor cAMP assay (agonist mode); type: cell-based; conditions: for Activity, EP2 Relative to Tre: relative to treprostinil EC50 values, * partial agonists or ambiguous dose-response curves, image character = too high to realistically calculate
T1 construct: expressed in transfected cells; host or cells: HEK293T

[6] = biological target: T2, prostaglandin D2 (PGD2) receptor 1 (DP1) (Homo sapiens, UniProt Q13258); assay: DP1 receptor cAMP assay (agonist mode); type: cell-based; conditions: for Activity, DP1 Relative to Tre: relative to treprostinil EC50 values, * partial agonists or ambiguous dose-response curves
T2 construct: expressed in transfected cells; host or cells: HEK293T
T2 sequence (Q13258 1-359): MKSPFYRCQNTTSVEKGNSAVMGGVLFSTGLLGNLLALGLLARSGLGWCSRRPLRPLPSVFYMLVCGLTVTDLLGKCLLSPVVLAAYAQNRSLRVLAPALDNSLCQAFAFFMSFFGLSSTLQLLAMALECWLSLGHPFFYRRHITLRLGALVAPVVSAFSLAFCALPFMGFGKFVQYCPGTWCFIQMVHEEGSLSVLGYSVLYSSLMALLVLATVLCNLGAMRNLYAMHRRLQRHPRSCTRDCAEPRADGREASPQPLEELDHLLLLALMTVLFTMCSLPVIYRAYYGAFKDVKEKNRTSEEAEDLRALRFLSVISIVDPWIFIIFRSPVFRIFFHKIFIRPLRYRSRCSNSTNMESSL

[7] = Table 20, agonist mode, NC = too inactive to realistically calculate, * partial agonists or odd dose-response curves
[8] = Table 24, image character = too high to realistically calculate

## treprostinil diacetate [Prodrug LXXII]
[1]; 0 min
  Percent Remaining: 100%
[1]; 15 min
  Percent Remaining: 106%
[1]; 30 min
  Percent Remaining: 106%
[1]; 60 min
  Percent Remaining: 102%
[2]; 0 min
  Percent Remaining: 100%
[2]; 15 min
  Percent Remaining: 107%
[2]; 30 min
  Percent Remaining: 107%
[3]; 0 min
  Percent Remaining: 100%
[3]; 30 min
  Percent Remaining: 102%
[3]; 60 min
  Percent Remaining: 107%
[4]; 0 min
  Percent Remaining: 100%
[4]; 15 min
  Percent Remaining: 111%
[4]; 30 min
  Percent Remaining: 107%
[4]; 60 min
  Percent Remaining: 108%
[4]; 120 min
  Percent Remaining: 109%
[5]; [7]
  EC50 Fold Different from Treprostinil, EP2 Receptor: 133x*
[5]; Table 24
  Activity, EP2 Relative to Tre: 133x*
[5]; Table 25
  Activity, EP2 Relative to Tre: 133x*
[6]; [7]
  EC50 Fold Different from Treprostinil, DP1 Receptor: 561x*
[6]; [8]
  Activity, DP1 Relative to Tre: 561x
[6]; Table 25
  Activity, DP1 Relative to Tre: 561x

## treprostinil dicarbonate [Prodrug LXXI]
[4]; 0 min
  Percent Remaining: 100%
[4]; 15 min
  Percent Remaining: 96.2%
[4]; 30 min
  Percent Remaining: 100%
[4]; 60 min
  Percent Remaining: 91.9%
[4]; 120 min
  Percent Remaining: 83.5%
[6]; [8]
  Activity, DP1 Relative to Tre: 2181x*
[6]; Table 25
  Activity, DP1 Relative to Tre: 2181x*
